Experimental data reported in paper PMC5469413 (Journal of immunology (Baltimore, Md. : 1950), 2017).

How the values were obtained:
[1] = system: Staphylococcus aureus; assay: Bacterial killing assay with recombinant whole IFN-β; assay type: cell-based; conditions: same concentration of 5×10^2 units/ml, 3 hours, CFU
[2] = system: S. aureus; assay: pH-specific killing assay with recombinant whole human IFN-β; assay type: cell-based, Staphylococcus aureus; conditions: hIFN-β produced in E. coli or CHO cells, neutral and low pH, 3 hours, % surviving bacteria based on initial CFU

| Molecule | killing of S. aureus, human versus mouse IFN-β [1] | killing activity against S. aureus by expression source [2] |
| --- | --- | --- |
| hIFN-β: recombinant whole human IFN-β (PBL Interferon), from E. coli or CHO sources (protein, UniProt P01574 22-187, looked up) Interferon beta: MSYNLLGFLQRSSNFQCQKLLWQLNGRLEYCLKDRMNFDIPEEIKQLQQFQKEDAALTIYEMLQNIFAIFRQDSSSTGWNETIVENLLANVYHQINHLKTVLEEKLEKEDFTRGKLMSSLHLKRYYGRILHYLKAKEYSHCAWTIVRVEILRNFYFINRLTGYLRN | did not kill bacteria as well as mIFN-β |  |
| hIFN-β produced in E. coli: recombinant hIFN-β produced in a bacterial (E. coli) expression system (protein, UniProt P01574 22-187, looked up) Interferon beta: MSYNLLGFLQRSSNFQCQKLLWQLNGRLEYCLKDRMNFDIPEEIKQLQQFQKEDAALTIYEMLQNIFAIFRQDSSSTGWNETIVENLLANVYHQINHLKTVLEEKLEKEDFTRGKLMSSLHLKRYYGRILHYLKAKEYSHCAWTIVRVEILRNFYFINRLTGYLRN |  | had killing activity at acidic pH |
| hIFN-β produced in CHO cells: recombinant hIFN-β produced in a mammalian cell expression system (CHO cells) (protein, UniProt P01574 22-187, looked up) Interferon beta: MSYNLLGFLQRSSNFQCQKLLWQLNGRLEYCLKDRMNFDIPEEIKQLQQFQKEDAALTIYEMLQNIFAIFRQDSSSTGWNETIVENLLANVYHQINHLKTVLEEKLEKEDFTRGKLMSSLHLKRYYGRILHYLKAKEYSHCAWTIVRVEILRNFYFINRLTGYLRN |  | had killing activity at acidic pH |
